The list is not random: actives were taken first. Their share in the collection is about 16%.
uPA surface inh: cell surface uPA generation inhibition; cell surface uPA generation assay, qHTS; Potency, µM (series often up to 38.3 µM), for the others: at the highest dose activity change, negative = inhibition, actives largely listed as inhibitors; 330,000 tested, 0.31% active; active means well fitted inhibition curve with a large enough effect; inconclusive means small, poorly fitted or top-dose-only effect; inactive means no such curve, though single readings can be large or run the other way; tested in mouse RAW 264.7 cells; further: potency means the concentration at half of the fitted maximal effect; on the % scale 0 is the no-effect control and ±100 the full control effect; nearly all actives have a fitted effect of over 55% in size
TDP1 cell CPT: DT40-hTDP1 cell growth loss with CPT | chicken DT40 Tdp1-/-;hTDP1 cells + 20 nM CPT, ATP luminescence, 48 h | Potency, µM (highest dose often 46.2 µM), without a hit: at the highest dose activity change, negative = growth inhibition, usual class: inhibitors | 420,000 tested, 12% active | AID 686979; further: potency means the concentration at half of the fitted maximal effect; on the % scale 0 is the no-effect control and ±100 the full control effect; nearly all actives have a fitted effect of over 55% in size
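Cell growth measured by CellTiter-Glo luminescence after a minimum 48 h, 37 C compound exposure with 20 nM CPT in Tdp1-knockout DT40 cells stably expressing hTDP1, seeded 400/well; qHTS titration format.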
miR-21 FLuc: miR-21 reporter, rising signal | HeLa miR-21 FLuc reporter, luciferase, 48 h | Potency, µM (highest dose often 38.3 µM), for inactives: at the top dose reporter change, positive = more light | 340,000 tested, under 10 active | AID 2288; active = well fitted rising curve with a large enough effect; inconclusive = small, poorly fitted or top-dose-only effect; inactive = no such curve, though single readings can be large or run the other way;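 further: % of control where 0% means no effect; miR-21 action dims this reporter so a rising signal means less miR-21 action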
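HeLa cells endogenously expressing miR-21, stably carrying CMV-driven firefly luciferase with a downstream miR-21 binding site, 2000 cells/well. Titrations up to approximately 40 uM, 48 hours; luciferase luminescence read.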
TDP1 block: inhibitors of human tyrosyl-DNA phosphodiesterase TDP1 | recombinant TDP1, AlphaScreen DNA substrate cleavage | Potency, µM (titrated, usually from 130 µM), for the others: at the top dose activity change, negative = inhibition, usual class: inhibitors | 350,000 tested, 0.28% active | AID 485290; further: potency means the concentration at half of the fitted maximal effect; on the % scale 0 is the no-effect control and ±100 the full control effect; nearly all actives have a fitted effect of over 40% in size
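AlphaScreen read-out: signal falls as enzyme removes the 3' tyrosine-FITC from a 5'-biotinylated DNA oligo (15 nM, 5 min, RT). Enzyme was E. coli-made recombinant Tdp1 at 1 nM, exposed to compound for 15 min beforehand; beads 10 ug/ml, 10 min.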
DT40 TDP1 no CPT: qHTS for Inhibitors of human tyrosyl-DNA phosphodiesterase 1 (TDP1): qHTS in cells in absence of CPT | Potency, µM (series often up to 46.2 µM), without a hit: top-dose activity change, negative = growth inhibition, actives largely listed as inhibitors | DT40 Tdp1-/- hTDP1 cells, no CPT, ATP luminescence, 48 h | 420,000 tested, 15% active | AID 686978, 2013; further: potency means the concentration at half of the fitted maximal effect; on the % scale 0 is the no-effect control and ±100 the full control effect; nearly all actives have a fitted effect of over 55% in size
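Compound effects on proliferation are scored in DT40 Tdp1-/-;hTDP1 cells in the absence of CPT. ATP levels (CellTiter-Glo luminescence) are recorded after a ≥48 hr, 37 °C incubation.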
The depositor's hits bear a star; u = inconclusive; x = no result given; [ ] = dose if it differs, or a comment. Unless noted, the call rests on the fitted dose curve; in most records, active means well fitted curve in the direction sought with a large enough effect; inconclusive means small, poorly fitted or top-dose-only effect, or another doubt; inactive means no such curve, though single readings can be large; an effect the other way counts as inactive or inconclusive.

Letter code – A = uPA surface inh; B = TDP1 cell CPT; C = miR-21 FLuc; D = TDP1 block; E = DT40 TDP1 no CPT
1: CCN(CC)S(=O)(=O)c1cc(NC(=O)c2cc(-c3ccccn3)nc3ccccc23)ccc1C
  A: -19% | B: 23µM* | C: 21% | D: 5% | E: 15µM*

2: COc1ccc(NC(=O)c2cc(-c3ccccn3)nc3ccccc23)cc1S(=O)(=O)N(C)C
  A: 0% | B: u | C: x | D: 1% | E: 9.2µM*

3: CCN(CC)C(=O)c1cccc(NC(=O)c2cc(-c3ccccn3)nc3ccccc23)c1
  A: 5% | B: u | C: x | D: 3% | E: 16µM*

4: CCNc1nc(NCC)n2c(SCC(=O)Nc3ccccc3Cl)nnc2n1
  A: 18% | B: -16% | C: x | D: x | E: -8%

5: S=c1[nH]nc(-c2ccncc2)n1/N=C/c1cn(-c2ccccc2)nc1-c1ccc(Cl)cc1
  A: 0% | B: u | C: -6% | D: x | E: u

6: CCC1=[N+](CC(=O)c2ccc(Br)cc2)CCn2c(C)ccc21
  A: -9% | B: u | C: -35% | D: x | E: 10µM*

7: CC1=[N+](CC(=O)c2ccccc2)CCn2cccc21
  A: 3% | B: -18% | C: -37% | D: 0% | E: u

8: CCC1=[N+](CC(=O)c2ccc(C)cc2)CCn2c(C)ccc21
  A: -8% | B: 2.9µM* | C: -28% | D: 5% | E: 2.1µM*

9: CCC1=[N+](CC(=O)c2ccc(C)cc2)CCn2cccc21
  A: -3% | B: 4.1µM* | C: -39% | D: 8% | E: 5.2µM*

10: O=C(COC(=O)COc1ccccc1)Nc1ncc(Cl)cc1Cl
  A: -1% | B: -9% | C: x | D: 0% | E: 5%

11: CC[N+](C)(CC)CC(=O)Nc1c(C)cccc1C
  A: x | B: -1% | C: x | D: -7%[56.1 µM] | E: -5%

12: COc1ccc(Cn2cc(F)c(=O)n(C)c2=O)cc1[N+](=O)[O-]
  A: 7% | B: -1% | C: -2% | D: x | E: -9%

13: CN(C)c1ccc(C(C[N+](=O)[O-])c2c(N)n(C)c(=O)n(C)c2=O)c(F)c1C#N (configuration not stated)
  A: u | B: 2.3µM* | C: u | D: x | E: 2.1µM*

14: COc1ccc(Br)cc1C(C[N+](=O)[O-])c1c(N)n(C)c(=O)n(C)c1=O (configuration not stated)
  A: 3.5µM* | B: 3.7µM* | C: u | D: 6% | E: 3.7µM*

15: Cn1c(N)c(S(=O)(=O)NCc2ccccc2Cl)c(=O)n(C)c1=O
  A: -11% | B: 22% | C: -1% | D: 11% | E: -44%

Record cards, from the list above. Screens in order: uPA surface inh | TDP1 cell CPT | miR-21 FLuc | TDP1 block | DT40 TDP1 no CPT
Cn1c(N)c(S(=O)(=O)NCc2ccccc2Cl)c(=O)n(C)c1=O in the list: -11% | 22% | -1% | 11% | -44%
S=c1[nH]nc(-c2ccncc2)n1/N=C/c1cn(-c2ccccc2)nc1-c1ccc(Cl)cc1 in the list: 0% | u | -6% | x | u
COc1ccc(NC(=O)c2cc(-c3ccccn3)nc3ccccc23)cc1S(=O)(=O)N(C)C in the list: 0% | u | x | 1% | 9.2µM*
COc1ccc(Cn2cc(F)c(=O)n(C)c2=O)cc1[N+](=O)[O-] in the list: 7% | -1% | -2% | x | -9%

The listing continues:
Letter code – A = uPA surface inh; B = TDP1 cell CPT; C = miR-21 FLuc; D = TDP1 block; E = DT40 TDP1 no CPT
16: Cn1c(N)c(C(C[N+](=O)[O-])c2c(F)cccc2Cl)c(=O)n(C)c1=O (configuration not stated)
  A: -11% | B: 2.6µM* | C: 13% | D: x | E: 2.1µM*

17: OCCN1CCN(c2cnc(-c3ccsc3)cn2)CC1
  A: x | B: 0% | C: x | D: x | E: -4%

18: COc1cccc(CN(C(=O)c2cccs2)C2CCS(=O)(=O)C2)c1 (configuration not stated)
  A: -5% | B: u | C: -7% | D: 3% | E: -16%

19: CCCCCn1c(CCCNC(=O)c2ccccc2)nc2ccccc21
  A: x | B: 23µM* | C: u | D: 6% | E: 21µM*

20: CCCCCn1c(CNC(=O)c2ccc(F)cc2)nc2ccccc21
  A: x | B: 16µM* | C: -1% | D: -3% | E: 21µM*

21: Nc1nc(NCc2ccco2)nc(N2CCCCCC2)c1[N+](=O)[O-]
  A: -5% | B: 21µM* | C: 18% | D: 11% | E: 16µM*

22: CC(C)CCNc1nc(N)c([N+](=O)[O-])c(N2CCCCCC2)n1
  A: -22% | B: u | C: 20% | D: x | E: 16µM*

23: Nc1nc(NCc2ccco2)nc(N2CCN(Cc3ccccc3)CC2)c1[N+](=O)[O-]
  A: -2% | B: u | C: 9% | D: 7% | E: 18µM*

24: Nc1nc(NCc2ccco2)nc(NC2CCCCC2)c1[N+](=O)[O-]
  A: -7% | B: 1% | C: -10% | D: 5% | E: -15%

25: Cc1nc2cc(-c3ccc(F)cc3)[nH]n2c(=O)c1C
  A: u | B: u | C: -43% | D: 3% | E: u

26: CCn1c(SCC(=O)N2CCN(c3ccc(F)cc3)CC2)nc2ccccc2c1=O
  A: -1% | B: 21µM* | C: 1% | D: 1% | E: u

27: Cc1cc(-n2c(C)cc(C(=O)CSc3nc4ccccc4c(=O)n3Cc3ccco3)c2C)no1
  A: 4% | B: 23µM* | C: -7% | D: 9% | E: 21µM*

28: Cc1ccc(-n2nnnc2SCn2nnc3ccccc3c2=O)c(C)c1
  A: x | B: 9.2µM* | C: -9% | D: 2% | E: 8.2µM*

29: O=C(CSc1nc2ccccc2c(=O)n1CCCN1CCOCC1)N1CCN(c2ccccc2)CC1
  A: -2% | B: -10% | C: -1% | D: -2% | E: u

30: O=C(CSc1nc2ccccc2c(=O)n1Cc1ccco1)N1CCN(c2ccccc2)CC1
  A: 3% | B: u | C: -1% | D: 4% | E: 26µM*

31: COc1ccc(CCNC(=O)C2=C(C)C(=O)OC23CCCCC3)c(OC)c1
  A: x | B: u | C: 3% | D: 6% | E: u

32: COc1ccc(/C=N/NC(=O)Nc2nonc2N)cc1
  A: 0% | B: -6% | C: -56% | D: -2% | E: -12%

33: COCCN1Cc2cccc(C(=O)Nc3ccc(C)cc3C)c2C1=O
  A: x | B: -17% | C: -15% | D: 7% | E: -19%

34: O=[N+]([O-])c1ccccc1/C=N/NC1=NS(=O)(=O)c2ccccc21
  A: 1% | B: -9% | C: -1% | D: -5% | E: -23%

35: CCCn1c(SCC(=O)N2CCN(c3ccccc3)CC2)nc2ccccc2c1=O
  A: 3% | B: u | C: -5% | D: 9% | E: u

36: O=C(CSc1n[nH]c(-c2ccc(F)cc2)n1)N1CCN(c2ccc(F)cc2)CC1
  A: x | B: 16µM* | C: -4% | D: 8% | E: 23µM*

37: COc1ccc(-c2nc(SCC(=O)N3CCN(c4ccc(F)cc4)CC3)n[nH]2)cc1
  A: x | B: -13% | C: 0% | D: 0% | E: -8%

38: O=c1c2ccccc2nnn1CSc1nc2ccccc2c(=O)n1Cc1ccco1
  A: 4% | B: 23µM* | C: 0% | D: 2% | E: 21µM*

39: O=C(CSc1nc2ccccc2c(=O)n1Cc1ccco1)c1ccccc1
  A: -8% | B: 16µM* | C: 0% | D: -2% | E: 21µM*

40: CCN(CC)C(=O)CSc1nc2ccccc2c(=O)n1CCC(=O)N1CCN(c2ccccc2)CC1
  A: -1% | B: 16µM* | C: 1% | D: 4% | E: u

41: O=c1c2ccccc2nc(SCc2ccccc2)n1Cc1ccco1
  A: -3% | B: -23% | C: -7% | D: -5% | E: u

42: C=C(C)Cn1c(CNC(C)=O)nc2ccccc21
  A: -7% | B: 0% | C: -6% | D: -3% | E: 1%

43: O=C(Nc1cccc(C(F)(F)F)c1)c1cc2nc(-c3ccccc3)cc(C(F)(F)F)n2n1
  A: x | B: -5% | C: 1% | D: -3%[12.3 µM] | E: 2%

44: COc1ccc(Cn2c(SCC(=O)N3CCN(c4ccc(F)cc4)CC3)nc3ccccc32)cc1
  A: x | B: 21µM* | C: -2% | D: 2% | E: 21µM*

45: COc1ccccc1C(=O)NCCOc1ccc(C(C)(C)C)cc1
  A: 0% | B: u | C: -10% | D: -4% | E: 21µM*

46: CC(C)(C)c1ccc(OCCNC(=S)Nc2ccccc2)cc1
  A: 4% | B: 2.9µM* | C: 7% | D: 0% | E: 5.8µM*

47: CCOc1ccc(CSCCNC(=S)Nc2ccccc2)cc1
  A: 0% | B: 23µM* | C: 12% | D: 2% | E: 23µM*

48: COc1ccccc1OCCNC(=O)c1ccccc1C
  A: 5% | B: -15% | C: -22% | D: 4% | E: -8%

49: COC(=O)C(CC(=O)CNC(=O)c1ccccc1)NC(=O)c1ccccc1 (configuration not stated)
  A: 0% | B: 6% | C: x | D: x | E: -1%

Bioassay records from PubChem BioAssay.
